Measurements reported in article PMC2705653 (Molecular cell, 2009).
Residue numbers refer to the chain shown, from its start.

Experiments:
Experiment in all cases: fluorescence polarisation
Chp1 chromodomain N59A = target: T1, Chp1 chromodomain N59A (S. pombe, UniProt Q10103 9-76, N59A)
T1 sequence (looked up): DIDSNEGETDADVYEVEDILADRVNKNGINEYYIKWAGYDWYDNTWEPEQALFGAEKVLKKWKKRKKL

Chp1 chromodomain V24M = target: T2, Chp1 chromodomain V24M (S. pombe, UniProt Q10103 9-76, V24M)
T2 sequence (looked up): T1 sequence (looked up) with V16M, A51N

[1] = target: T3, Chp1 chromodomain, wild type (for binding studies) (S. pombe, UniProt Q10103 9-76)
T3 sequence (looked up): T1 sequence (looked up) with A51N

Chp1 chromodomain V21A = target: T4, Chp1 chromodomain V21A (S. pombe, UniProt Q10103 9-76, V21A)
T4 sequence (looked up): T1 sequence (looked up) with V13A, A51N

Chp1 chromodomain F61A = target: T5, Chp1 chromodomain F61A (S. pombe, UniProt Q10103 9-76, F61A)
T5 sequence (looked up): T1 sequence (looked up) with A51N, F53A

Chp1 chromodomain E23V = target: T6, Chp1 chromodomain E23V (S. pombe, UniProt Q10103 9-76, E23V)
T6 sequence (looked up): T1 sequence (looked up) with E15V, A51N

[2] = target: T7, Chp1 chromodomain E23V,V24M (S. pombe, UniProt Q10103 9-76, E23V | V24M)
T7 sequence (looked up): T1 sequence (looked up) with E15V, V16M, A51N

Binder	Kd (Chp1 chromodomain N59A) [µM]	Kd (Chp1 chromodomain V24M) [µM]	Kd [1] [nM]	Kd (Chp1 chromodomain V21A) [nM]	Kd (Chp1 chromodomain F61A) [nM]	Kd (Chp1 chromodomain E23V) [µM]	Kd [2] [µM]
ARTKQTARKSTGGKAY (dimethyl-lysine at 9; fluorescein (position not given)) [fluorescein labeled H3K9me2 peptide]	6.22 ± 1.12	9.58 ± 0.55	550 ± 90	3380 ± 600	1020 ± 280	4.1 ± 0.37	22.1 ± 1.7
ARTKQTARKSTGGKAY (trimethyl-lysine at 9) [H3K9me3 peptide (fluorescence polarization)]	5.95 ± 1.83	5 ± 0.45	190 ± 20	1460 ± 400	540 ± 200	3.16 ± 0.32	
